Results on two molecules are retold here after patent publication US8987239B2, “19-nor-steroid derivatives with a 15α,16α-methylene group and a saturated 17,17-spirolactone ring, use thereof, and medicaments containing said derivatives” (Bayer Intellectual Property GmbH, priority 2007, dated 2015).

By UniProt entry, the sequences of proteins in these tests, tags left out. Residues count along the entry.
UniProt P06401, 679-913, species assumed: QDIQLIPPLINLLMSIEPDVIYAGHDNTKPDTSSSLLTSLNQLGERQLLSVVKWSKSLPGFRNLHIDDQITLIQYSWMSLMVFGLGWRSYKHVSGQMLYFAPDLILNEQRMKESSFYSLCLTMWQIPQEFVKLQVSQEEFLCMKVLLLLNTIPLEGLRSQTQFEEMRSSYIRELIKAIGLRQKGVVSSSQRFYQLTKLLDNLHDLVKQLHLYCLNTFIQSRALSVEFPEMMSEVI
UniProt P06401, whole entry, species assumed: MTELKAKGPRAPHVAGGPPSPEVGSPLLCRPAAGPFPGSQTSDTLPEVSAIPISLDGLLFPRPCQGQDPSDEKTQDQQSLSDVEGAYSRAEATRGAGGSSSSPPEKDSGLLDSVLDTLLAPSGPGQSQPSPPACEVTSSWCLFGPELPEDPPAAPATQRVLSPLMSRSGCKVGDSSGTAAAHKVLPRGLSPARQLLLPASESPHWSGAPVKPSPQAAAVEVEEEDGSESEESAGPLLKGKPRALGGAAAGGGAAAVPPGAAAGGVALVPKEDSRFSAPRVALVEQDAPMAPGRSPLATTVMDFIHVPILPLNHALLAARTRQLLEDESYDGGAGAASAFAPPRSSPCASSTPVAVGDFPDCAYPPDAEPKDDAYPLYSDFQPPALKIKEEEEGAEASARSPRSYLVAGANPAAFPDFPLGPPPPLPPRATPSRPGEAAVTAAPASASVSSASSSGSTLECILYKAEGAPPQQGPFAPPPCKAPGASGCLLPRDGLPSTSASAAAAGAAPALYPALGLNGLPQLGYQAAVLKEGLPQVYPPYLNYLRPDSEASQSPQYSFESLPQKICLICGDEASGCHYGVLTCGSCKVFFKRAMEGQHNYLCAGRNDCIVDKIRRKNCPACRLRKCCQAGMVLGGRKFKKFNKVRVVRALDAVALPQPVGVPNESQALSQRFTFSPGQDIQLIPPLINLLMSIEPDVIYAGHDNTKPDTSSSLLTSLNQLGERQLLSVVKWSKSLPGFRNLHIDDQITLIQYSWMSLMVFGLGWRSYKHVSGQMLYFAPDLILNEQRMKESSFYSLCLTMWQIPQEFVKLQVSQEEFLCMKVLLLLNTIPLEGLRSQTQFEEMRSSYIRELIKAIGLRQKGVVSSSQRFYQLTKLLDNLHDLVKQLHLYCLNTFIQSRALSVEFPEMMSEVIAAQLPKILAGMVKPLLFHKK

Structures are written as SMILES.

Usually EC50 stands for the midpoint of the concentration-response curve. A lower EC50 goes with greater potency. As a reminder, the IC50 is the concentration needed to halve the response being measured.

Assay [1] addresses T1, progesterone receptor (Homo sapiens (Human), UniProt P06401). As to the kind of experiment: Progestational action by transactivation test (CHO K1 reporter cells, luciferase). The assay is classed as cell-based. Here is the method: 4. Determination of Progestational Action by Means of Transactivation Tests:
The test compounds were added eight hours later, and the cells were incubated with the compounds for 16 hours. The tests were carried out in triplicate. At the end of incubation the medium containing the effector was removed and replaced with lysis buffer. After luciferase assay substrate (Promega, #E1501) had been added, the 96-well plates were then put in a microplate luminometer (Pherastar, BMG labtech), and the luminescence was measured. The IC50 values were evaluated using software for calculating dose-effect relations.

The target of assay [2] is T1, progesterone receptor. As to the kind of experiment: Progesterone receptor binding test (displacement of 3H-progesterone). The note with it: for Receptor binding Progesterone receptor Competition factor: CF relative to progesterone (=1), CF <1 means higher affinity; for CF PR/CF MR: ratio of competition factors, progesterone receptor to mineralocorticoid receptor; for IC50: read-out: Receptor binding Progesterone receptor IC50, cytosol from PR-expressing insect cells (Hi5), 3H-progesterone. In general terms: In a radioligand displacement assay an active substance lowers the binding of a labelled ligand.

In the case of `CC1CC2=CC(=O)CCC2C2CC[C@@]3(C)C(C4CC4[C@@]34CCC(=O)O4)C12` (stereo partly drawn) [Example 3, 17β-Hydroxy-7α-methyl-15α,16α-methylene-19-nor-17α-pregna-4-en-3-one-21-carboxylicacid γ-lactone], the EC50 in assay [1] was found to be 0.6 nM. Further, in assay [2], the “Receptor binding Progesterone receptor Competition factor” value was 0.60, the “CF PR/CF MR” value is on record as 0.46 and the IC50 was determined as 12.1 nM.

With `C[C@]12CCC3C4CCC(=O)C=C4CCC3C1C1CC1[C@@]21CCC(=O)O1` (stereo partly drawn) [Example 1, 17β-Hydroxy-15α,16α-methylene-19-nor-17α-pregna-4-en-3-one-21-carboxylic acid γ-lactone], the 50% effective concentration (EC50) in assay [1] is 0.1 nM. Further, in assay [2], the “Receptor binding Progesterone receptor Competition factor” value is given as 0.74, the “CF PR/CF MR” value is 0.41 and the IC50 turned out to be 15 nM.
